Test results reported in patent US11267861B2, “Peptide-oligourea foldamer compounds and methods of their use” (UREKA SARL, priority 2016, dated 2022).

What was measured:
[1] = target: T1, Leucyl aminopeptidase (EC 3.4.11.1) (Sus scrofa, UniProt P28839); assay: Enzymatic degradation by leucyl aminopeptidase; assay type: in vitro ADME, porcine; settings: compared to the native peptides
T1 construct: from porcine kidney (Sigma); chromatographically purified suspension; purchased Sigma; host or cells: porcine kidney
T1 sequence (P28839 1-519): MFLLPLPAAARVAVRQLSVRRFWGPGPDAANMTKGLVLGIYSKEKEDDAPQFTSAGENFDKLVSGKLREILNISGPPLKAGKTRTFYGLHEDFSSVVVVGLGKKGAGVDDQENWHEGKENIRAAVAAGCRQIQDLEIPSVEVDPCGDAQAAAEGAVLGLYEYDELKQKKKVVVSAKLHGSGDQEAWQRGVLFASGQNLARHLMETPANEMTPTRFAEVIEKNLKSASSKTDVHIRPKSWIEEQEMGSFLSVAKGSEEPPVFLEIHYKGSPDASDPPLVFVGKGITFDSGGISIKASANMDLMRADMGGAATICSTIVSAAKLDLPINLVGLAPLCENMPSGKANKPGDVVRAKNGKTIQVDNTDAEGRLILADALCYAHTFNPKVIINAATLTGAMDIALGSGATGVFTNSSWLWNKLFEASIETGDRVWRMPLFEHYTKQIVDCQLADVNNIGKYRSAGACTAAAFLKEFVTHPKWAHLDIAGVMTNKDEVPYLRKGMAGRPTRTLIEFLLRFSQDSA
Procedure: Enzymatic Degradation—Leucyl Aminopeptidase. Leucyl aminopeptidase (EC 3.4.11.1) from porcine kidney (Sigma); chromatographically purified suspension in 2.9 M (NH4)2SO4, 0.1 M Tris, 5 mM MgCl2 solution, pH 8.0; stock solution in PBS buffer (pH 7.2, 0.01 M). For each degradation experiment, stock solutions of the peptidic substrate and the enzyme were made using phosphate-buffered saline (PBS) buffer solution. […] The pH was adjusted either with NaOH (1 M) or with HCl (1 M) prior to use. A solution of the substrate in PBS buffer (pH 7.2, 0.01 M) and a solution of the required amount of enzyme, were mixed and incubated at 25° C. for 4 hours. Degradation was stopped with concentrated AcOH, and buffer solution was added so that the total volume reached 150 μL.
The resulting mixture was analyzed by reversed-phase HPLC. A mixture of CH3CN/H2O (0.1% TFA) was used as eluent. Gradients were 10% CH3CN to 100% CH3CN in 10 minutes. The flow rate, for all separations, was 1 mL·min^−1.

mouse GLP-1 receptor = target: T2, mouse GLP-1 receptor (Mus musculus, UniProt O35659); assay: GLP-1 functional assay: agonist activity by cAMP production (HTRF) in βTC6 cells; assay type: cell-based
T2 construct: mouse GLP-1 receptor endogenously expressed in βTC6 cells; endogenous in cells; host or cells: βTC6 cells
T2 sequence (O35659 22-463): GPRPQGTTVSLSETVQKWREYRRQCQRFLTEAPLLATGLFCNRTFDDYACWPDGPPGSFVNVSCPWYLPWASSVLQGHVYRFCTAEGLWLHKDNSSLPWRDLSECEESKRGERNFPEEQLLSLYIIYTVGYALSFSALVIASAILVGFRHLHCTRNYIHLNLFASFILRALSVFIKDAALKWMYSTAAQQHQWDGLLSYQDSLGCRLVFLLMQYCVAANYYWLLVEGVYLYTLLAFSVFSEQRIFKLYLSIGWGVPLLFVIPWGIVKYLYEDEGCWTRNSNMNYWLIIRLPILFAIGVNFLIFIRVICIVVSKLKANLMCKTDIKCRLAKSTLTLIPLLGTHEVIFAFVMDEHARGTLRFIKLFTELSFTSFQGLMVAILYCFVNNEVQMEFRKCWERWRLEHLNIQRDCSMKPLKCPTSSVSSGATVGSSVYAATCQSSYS
Procedure: For stimulated control measurement, separate assay wells contain 10 nM GLP-1(7-37) were utilized.
Following incubation, the cells were lysed and the fluorescence acceptor (D2-labeled cAMP) and fluorescence donor (anti-cAMP antibody labeled with europium cryptate) were added. […] The results are expressed as a percent of the control response to 10 nM GLP-1(7-37). The standard reference agonist is GLP-1(7-37), which was tested in each experiment at several concentrations to generate a concentration-response curve from which its EC50 value was calculated.
HTRF (Homogeneous Time-Resolved Fluorescence) principle. The HTRF technology is based on time resolved fluorescence energy transfer (TR-FRET), which occurs between long-lived fluorophore Europium or Terbium Cryptates, and EuK or Tb respectively, as a donor and the allophycocyanin XL665, d2 or Red as acceptor. Many compounds and proteins present in biological fluids or serum are naturally fluorescent, and the use of conventional, prompt fluorescence leads to serious limitations in assay sensitivity. The use of long-lived fluorophore combined with time-resolved detection (a delay between excitation and emission detection) minimizes prompt fluorescence interference.

Compound: CC[C@H](C)[C@H](NC(=O)[C@H](Cc1ccccc1)NC(=O)[C@H](CCC(=O)O)NC(=O)[C@H](CCCCN)NC(=O)[C@H](C)NC(=O)[C@H](C)NC(=O)[C@H](CCC(N)=O)NC(=O)CNC(=O)[C@H](CCC(=O)O)NC(=O)[C@H](CC(C)C)NC(=O)[C@H](Cc1ccc(O)cc1)NC(=O)[C@H](CO)NC(=O)[C@H](CO)NC(=O)[C@@H](NC(=O)[C@H](CC(=O)O)NC(=O)[C@H](CO)NC(=O)[C@@H](NC(=O)[C@H](Cc1ccccc1)NC(=O)[C@@H](NC(=O)CNC(=O)[C@H](CCC(=O)O)NC(=O)NC[C@H](C)NC(=O)[C@@H](N)Cc1c[nH]cn1)[C@@H](C)O)[C@@H](C)O)C(C)C)C(=O)N[C@@H](C)C(=O)N[C@@H](Cc1c[nH]c2ccccc12)C(=O)N[C@@H](CC(C)C)C(=O)N[C@H](C(=O)N[C@@H](CCCCN)C(=O)NCC(=O)N[C@@H](CCCNC(=N)N)C(=O)NCC(=O)O)C(C)C [Compound 13]
- stability (half-life) with leucyl aminopeptidase compared to native peptides [1]: more stable than the native peptides
- pEC50 (mouse GLP-1 receptor): 10.10

pEC50: −log10 of the molar value.
